Measured values taken from patent US11472788B2, “Benzoimidazoles as selective inhibitors of indoleamine 2,3-dioxygenases” (BEIGENE, LTD., priority 2017, dated 2022).

Chains of the proteins cited; added tags and fusions are not shown.
UniProt P14902, whole entry: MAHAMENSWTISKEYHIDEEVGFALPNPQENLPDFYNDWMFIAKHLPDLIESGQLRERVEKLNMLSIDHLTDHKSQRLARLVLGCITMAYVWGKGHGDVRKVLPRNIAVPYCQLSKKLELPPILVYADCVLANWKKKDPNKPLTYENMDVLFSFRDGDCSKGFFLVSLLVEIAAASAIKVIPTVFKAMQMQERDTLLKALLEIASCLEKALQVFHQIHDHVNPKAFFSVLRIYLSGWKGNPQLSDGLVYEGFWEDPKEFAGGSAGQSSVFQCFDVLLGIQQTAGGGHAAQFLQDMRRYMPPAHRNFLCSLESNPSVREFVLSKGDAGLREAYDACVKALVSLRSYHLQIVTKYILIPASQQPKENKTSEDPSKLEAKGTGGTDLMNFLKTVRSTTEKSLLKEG

Biological target: cellular IDO1 in HeLa cells (Homo sapiens (Human), UniProt P14902)
Test: HeLa Cell-Based IDO1 Kyn (Kynurenine) Production Assay
Conditions: read-out: Cell-Based EC50 (nM) Hela IDO1, IFN-γ induced IDO1, 48 hours incubation, Kyn absorbance at 480 nm
Experimental: HeLa Cell-Based IDO1 Kyn (Kynurenine) Production Assay:
The inhibitory activity of IDO1 inhibitors is determined by using a colorimetric reaction to measure Kyn generated from L-Trp (L-Tryptophon) oxidation by cellular IDO1 in HeLa cells after induction of IDO1 expression by IFN-γ.
Hela cells were obtained from the American Type Culture Collection and recovered in 10% FBS-containing phenol red-free DMEM medium. Cells were plated onto a 96-well plate (100 μl/well) at 8000 cells per well and kept at 37° C. in a humidified incubator supplied with 5% CO2. 4 hours later, Human recombinant IFN-γ (8901SC, CST) was added to cells (final concentration 100 ng/mL) to stimulate endogenous IDOL. Compounds at different concentrations diluted in dimethylsulfoxide (DMSO) were added simultaneously with IFN-γ and 0.4 mM L-Trp. Cells were kept at 37° C. in a humidified incubator supplied with 5% CO2. After 48 hours of incubation, 100 μl supernatant from each well was removed to a new plate. The protein in the medium was precipitated with the addition of 8 μl 6N trichloroacetic acid. The plate was incubated at 60° C. for 30 minutes and then centrifugation at 2500 rpm for 10 minutes to remove sediments. 80 μl supernatants were carefully removed to a new clean plate and added with an equal volume of 2% 4-(Dimethylamino)benzaldehyde (D2004, sigma) dissolved in glacial acetic acid. The absorbance at 480 nm wavelength derived from Kyn was measured using a PHERAstar FS plate reader (BMG LABTECH). The IC5C for each compound was derived from fitting the dose-response data to the four-parameter logistic model by using XLfit software (IDBS).

EC50 [nM] | Compound
4.7 | C[C@@H](c1nc2cc(F)c(-c3cccnc3)cc2[nH]1)[C@H]1CC[C@@H](c2ccnc3ccc(F)cc32)CC1
50 | C[C@H](c1nc2cc(F)c(-c3ccncc3)cc2[nH]1)[C@H]1CC[C@@H](c2ccnc3ccc(F)cc32)CC1
24.3 | C[C@@H](c1nc2cc(F)c(-c3ccncc3)cc2[nH]1)[C@H]1CC[C@@H](c2ccnc3ccc(F)cc32)CC1
